According to ChEMBL document CHEMBL5576072, “Discovery of a potent and selective JAK1-targeting PROTAC degrader with anti-tumor activities” (Bioorg Med Chem Lett, 2024):

What was measured:
HEL = experiment: Antiproliferative activity against HEL cells; conditions: Homo sapiens
K562 = experiment: Antiproliferative activity against human K562 cells
THP-1 = experiment: Antiproliferative activity against human THP-1 cells

IC50 (K562): 4.7 µM | IC50 (THP-1): 8.8 µM
Structure (SMILES): N#CCNC(=O)c1ccc(-c2ccnc(Nc3ccc(N4CCOCC4)cc3)n2)cc1 [MOMELOTINIB]
IC50 (HEL): 0.95 µM
